Results on two compounds are retold here after US20140187559A1, “INHIBITORS OF THE FIBROBLAST GROWTH FACTOR RECEPTOR” (BLUEPRINT MEDICINES CORPORATION, priority 2012, published 2014).

Chains of the proteins cited; added tags and fusions are not shown. Residues count along the entry.
UniProt P22455, 22-802: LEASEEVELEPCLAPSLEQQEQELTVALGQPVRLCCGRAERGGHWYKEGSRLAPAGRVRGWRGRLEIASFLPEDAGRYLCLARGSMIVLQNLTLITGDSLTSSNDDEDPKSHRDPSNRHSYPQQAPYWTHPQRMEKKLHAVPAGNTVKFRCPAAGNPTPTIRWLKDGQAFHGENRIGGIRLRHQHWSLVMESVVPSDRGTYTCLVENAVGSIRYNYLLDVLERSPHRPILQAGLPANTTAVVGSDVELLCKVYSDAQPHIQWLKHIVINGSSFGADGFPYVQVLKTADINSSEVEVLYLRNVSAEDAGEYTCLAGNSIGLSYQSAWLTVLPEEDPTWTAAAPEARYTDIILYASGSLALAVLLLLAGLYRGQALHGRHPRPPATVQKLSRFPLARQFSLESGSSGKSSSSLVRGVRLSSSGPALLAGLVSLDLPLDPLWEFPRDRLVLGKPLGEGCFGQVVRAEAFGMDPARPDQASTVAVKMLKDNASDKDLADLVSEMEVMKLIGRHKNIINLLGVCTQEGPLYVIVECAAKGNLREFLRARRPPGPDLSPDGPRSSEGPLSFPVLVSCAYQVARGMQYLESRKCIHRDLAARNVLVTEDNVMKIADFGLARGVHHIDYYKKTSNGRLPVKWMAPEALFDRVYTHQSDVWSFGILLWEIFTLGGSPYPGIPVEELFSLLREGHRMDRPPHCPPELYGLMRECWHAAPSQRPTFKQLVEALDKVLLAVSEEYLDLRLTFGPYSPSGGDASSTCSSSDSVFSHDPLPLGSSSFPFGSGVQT

The target in this assay is T1, wild type FGFR-4 (Homo sapiens, UniProt P22455).
T1 construct: purchased Carna Biosciences, Inc
Nature of the assay: FGFR-4 wild type assay at Km (Caliper mobility shift). Conditions: [IC50 for FGFR1]/[IC50 for FGFR4]. It counts as biochemical.

In the case of `C=CC(=O)Nc1cccc(C)c1Nc1ncc2cc(-c3c(Cl)c(OC)cc(OC)c3Cl)cc(F)c2n1` [COMPOUND 34, N-(2-((6-(2,6-dichloro-3,5-dimethoxyphenyl)-8-fluoroquinazolin-2-yl)amino)-3-methylphenyl)acrylamide], the “Ratio FGFR1/FGFR4” value is “D (the ratio is ≧50 and <100)”.

On to `C=CC(=O)Nc1ccccc1Nc1ncc2cc(-c3c(Cl)c(OC)cc(OC)c3Cl)c(=O)n(C)c2c1C` [COMPOUND 40, N-(2-((3-(2,6-dichloro-3,5-dimethoxyphenyl)-1,8-dimethyl-2-oxo-1,2-dihydro-1,6-naphthyridin-7-yl)amino)phenyl)acrylamide], for which the “Ratio FGFR1/FGFR4” value is reported as “A (the ratio is >500)”.
